Source: US7868204B2, “Inhibitors of histone deacetylase” (MethylGene Inc., priority 2001, dated 2011)

The chains behind the UniProt entries cited, without tags or fusion partners.
UniProt Q13547, whole entry: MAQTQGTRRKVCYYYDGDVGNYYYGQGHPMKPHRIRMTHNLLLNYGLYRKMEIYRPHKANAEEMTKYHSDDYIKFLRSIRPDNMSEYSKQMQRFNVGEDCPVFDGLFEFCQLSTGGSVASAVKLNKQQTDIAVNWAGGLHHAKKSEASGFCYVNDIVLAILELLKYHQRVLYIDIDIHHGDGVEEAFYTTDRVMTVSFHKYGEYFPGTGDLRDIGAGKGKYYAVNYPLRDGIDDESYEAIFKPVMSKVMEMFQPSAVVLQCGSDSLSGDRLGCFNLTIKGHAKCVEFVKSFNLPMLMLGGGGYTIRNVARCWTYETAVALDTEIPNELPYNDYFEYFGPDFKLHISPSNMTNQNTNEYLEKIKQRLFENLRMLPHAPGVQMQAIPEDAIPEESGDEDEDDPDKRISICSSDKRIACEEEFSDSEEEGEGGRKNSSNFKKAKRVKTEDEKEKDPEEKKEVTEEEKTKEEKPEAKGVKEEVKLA

Tests used:
[1] = system: acetylated histone H-4 in T24 human bladder cancer cells; assay: Histone H4 acetylation in whole cells by immunoblots; details: read-out: H4 Ac (T24) EC50, Table 5F, 16 h
[2] = molecular target: cloned recombinant human HDAC-1 (Homo sapiens, UniProt Q13547); assay: Human HDAC-1 enzyme inhibition, Assay 1 ([3H]-acetylated histone substrate, scintillation counting); type: biochemical; details: read-out: Human HDAC-1 IC50; Table 5F
HCT116 cells = assay: MTT assay; details: read-out: MTT (HCT116) IC50, Table 5F, 72 hours

Compound Nc1ccccc1NC(=O)c1ccc(CC2COc3ccccc3C2=O)cc1 (stereo not drawn) has an EC50 [1] of 2000 nM, an IC50 [2] of 400 nM and an IC50 (HCT116 cells) of 900 nM.
